Assay results: patent publication US20250249020A1, “COLLOIDALLY STABLE HEME-ALBUMIN COMPLEXES AND METHODS OF MAKING AND USING THEREOF” (Ohio State Innovation Foundation, priority 2022, published 2025)
Several values for one entry are separate records, joined by “and”; a condition that tells them apart may be missing. Equal entries are not always repeated. Entries after “also recorded” stand apart in the source; their conditions may differ.

Experiments:
Format in all cases: physicochemical
[1] = Hydrodynamic diameter by dynamic light scattering (DLS); settings: samples in deionized water
Description: Hydrodynamic Diameter. The hydrodynamic diameter of protein samples was measured using a BI-200SM goniometer (Brookhaven Instruments Corp., Holtsville, NY) at an angle of 90° and wavelength of 637 nm. Protein samples were diluted to ˜0.5-1 mg/mL concentration in deionized water. The hydrodynamic diameter was obtained by using average values from the non-linear least squared (NNLS) algorithm in the instrument software.

[2] = Storage and freeze-thaw stability analysis by SEC-HPLC; settings: for change in quaternary structure / SEC-HPLC elution profile: storage at 4° C. for 72 hours; for larger species (~8.4 mins): post one freeze-thaw cycle
[3] = Secondary structure (α-helical content) by far UV circular dichroism; settings: CD peak at 222 nm
Description: Secondary Structure. The far UV circular dichroism (CD) spectra of protein samples was measured using a JASCO J-815 CD (JASCO, Easton, MD) spectrometer. Samples were diluted to 10 μM (protein basis) in deionized water and the absorbance was measured from 200 to 260 nm. For each measurement, spectra were obtained by averaging 3 repeated scans. Baseline subtraction was performed, and the absorbance was normalized using the protein concentration. The molar ellipticity was reported in units of deg cm^2 dmol^−1. The α-helix peak at 222 nm was used to determine the change in α-helical content of samples.

[4] = Heme incorporation quantification (heme pellet centrifugation, UV-visible); settings: for heme molecules bound to each HSA molecule: pH 7.4
Description: Heme Incorporation Quantification. […] All final products were centrifuged at 20,000×g for 3 mins to precipitate unbound heme. The supernatant was removed, and the heme pellet was solubilized in 1 mL of 0.1 M NaOH. The concentration of unbound heme (i.e. from NaOH solubilized heme pellet) in each sample was determined using the absorbance at the 398 nm peak, and using an extinction coefficient of 12 x10^4 M^−1 cm^−1. The difference in the mass of free heme solubilized in NaOH before reaction (total heme), and after centrifugation to form the heme pellet (unbound heme) was used to determine the amount of bound heme in the heme-HSA sample.

[5] = post a single freeze-thaw cycle (−80° C.), directly and after 72 hours of storage at 4° C.

| Substance | hydrodynamic diameter [1] | change in quaternary structure ([2]; pH shift from 7.4 to 8.6 and rebalancing to 7.4) | change in quaternary structure [2, 5] | change in quaternary structure / SEC-HPLC elution profile [2] | reduction in α-helical content ([3]; after a pH change to 8.6) | colloidal / storage stability (summary statement) ([2]; different pH environments, freeze-thaw cycles, storage at 4° C.) | reduction of α-helical content compared to heme-HSA ([3]; after PEG-conjugation) | larger species (~8.4 mins) ([2]; 0 hours) | larger species (~8.4 mins) ([2]; after 72 hours of storage at 4° C.) | change in SEC-HPLC elution profile ([2]; storage at 4° C. for 24 hours) | heme precipitation out of solution ([2]; storage in aqueous solution at 4° C. for over 1 week) | heme molecules bound to each HSA molecule ([4]; 6:1 heme:HSA incubation reaction) | heme molecules bound to each HSA molecule ([4]; 10:1 heme-HSA incubation reaction) | heme molecules bound to each HSA molecule ([4]; 12:1 heme-HSA incubation reaction) | maximum heme molecules bound to each HSA molecule ([4]; heme:HSA molar ratios >6:1, without precipitation or degradation) |
| --- | --- | --- | --- | --- | --- | --- | --- | --- | --- | --- | --- | --- | --- | --- | --- |
| HSA: 25 wt % human serum albumin solution manufactured by Octapharma | 3.8±0.4 nm | No change in the quaternary structure | HSA dimer formation | did not exhibit any changes in quaternary structure; also recorded: stable | ~60% | – | – | – | – | – | – | – | – | – | – |
| PEG-HSA: HSA surface-conjugated with mPEG-maleimide (5000 Da) via thiol-maleimide chemistry | 13.1±0.6 nm | – | – | – | – | – | – | – | – | – | – | – | – | – | – |
| PEG-heme-HSA: heme incorporated into HSA followed by PEG (5000 Da) surface conjugation | 11.9±1.4 nm | – | no change in the quaternary structure | did not show any change in the SEC-HPLC elution profile; also recorded: no change in quaternary structure | – | stable; also recorded: more colloidally-stable than heme-HSA | ~9% | – | – | – | – | – | – | – | – |
| heme-HSA: heme non-covalently incorporated into human serum albumin, ~5 hemes bound per HSA molecule | 5.1±2.2 nm and 5.1±1.2 nm | – | dimer formation | appearance of dimeric species | – | – | – | > 20% | ~90% | no change in the SEC-HPLC elution profile; also recorded: dimer formation | no heme precipitated out of solution | ~5.8 | 5.3 | 4.9 | 5-6 and ~5 |
